Results: patent publication US9273046B2, “Fused tricyclic compounds as Raf kinase inhibitors” (BeiGene, LTD., priority 2011, dated 2016)

Protein sequences, listed by entry. Tags and fused reporters are not part of them.
UniProt P15056, whole entry V600E: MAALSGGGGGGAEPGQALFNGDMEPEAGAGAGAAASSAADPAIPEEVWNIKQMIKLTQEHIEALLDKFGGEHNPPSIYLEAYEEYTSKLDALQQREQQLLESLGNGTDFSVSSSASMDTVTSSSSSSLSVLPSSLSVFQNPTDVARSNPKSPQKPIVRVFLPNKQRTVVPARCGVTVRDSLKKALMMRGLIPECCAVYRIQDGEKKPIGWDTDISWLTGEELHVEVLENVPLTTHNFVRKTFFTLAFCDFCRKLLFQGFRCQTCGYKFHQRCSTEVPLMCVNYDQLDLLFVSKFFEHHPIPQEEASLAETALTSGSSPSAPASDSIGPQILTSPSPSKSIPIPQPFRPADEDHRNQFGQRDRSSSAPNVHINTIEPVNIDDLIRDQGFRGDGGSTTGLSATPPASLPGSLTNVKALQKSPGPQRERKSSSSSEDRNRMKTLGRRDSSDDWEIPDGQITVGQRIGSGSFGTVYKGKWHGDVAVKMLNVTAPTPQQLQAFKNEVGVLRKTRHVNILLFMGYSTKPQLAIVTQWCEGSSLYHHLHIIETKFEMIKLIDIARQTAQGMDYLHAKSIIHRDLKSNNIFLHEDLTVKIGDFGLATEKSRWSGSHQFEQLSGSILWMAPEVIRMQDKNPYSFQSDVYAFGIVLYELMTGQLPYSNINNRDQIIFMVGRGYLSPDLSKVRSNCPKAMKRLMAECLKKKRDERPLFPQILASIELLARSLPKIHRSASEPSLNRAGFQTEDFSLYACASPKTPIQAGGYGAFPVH
UniProt P04049, whole entry Y340D/Y341D: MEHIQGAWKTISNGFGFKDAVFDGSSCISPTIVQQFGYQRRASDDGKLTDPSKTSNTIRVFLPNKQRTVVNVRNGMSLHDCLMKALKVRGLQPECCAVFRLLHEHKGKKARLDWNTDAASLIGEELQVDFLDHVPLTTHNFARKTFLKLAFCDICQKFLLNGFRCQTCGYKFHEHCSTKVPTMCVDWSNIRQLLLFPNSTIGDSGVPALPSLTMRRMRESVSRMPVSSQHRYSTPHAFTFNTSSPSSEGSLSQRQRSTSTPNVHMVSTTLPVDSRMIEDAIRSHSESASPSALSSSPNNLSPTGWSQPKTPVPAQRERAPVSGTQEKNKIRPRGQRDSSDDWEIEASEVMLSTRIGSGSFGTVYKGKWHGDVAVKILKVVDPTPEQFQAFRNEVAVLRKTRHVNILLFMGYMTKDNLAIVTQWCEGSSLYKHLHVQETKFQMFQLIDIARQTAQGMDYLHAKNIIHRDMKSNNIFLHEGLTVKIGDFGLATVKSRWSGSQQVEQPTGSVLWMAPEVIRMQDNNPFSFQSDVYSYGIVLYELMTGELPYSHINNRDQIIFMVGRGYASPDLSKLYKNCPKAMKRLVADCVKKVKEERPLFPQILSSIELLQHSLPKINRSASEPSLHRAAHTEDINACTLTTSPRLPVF

Target: B-Raf (V600E) (Homo sapiens (Human), UniProt P15056, V600E)
Experiment: Raf IC50 assay, time-resolved fluorescence energy transfer (TR-FRET), B-Raf
Assay type: biochemical
Conditions: 0.0625 nM B-Raf, 0.1 mM ATP, GST-tagged MEK1 substrate, 60 min preincubation
Method: The enzyme was incubated with the compounds at room temperature for 60 minutes and the reactions were initiated by the addition of ATP and GST-MEK1. […] Plates were sealed and incubated at room temperature for 2 hours, and then the TR-FRET signals were read on BMG PHERAstar FS instrument. The IC50 for each compound was calculated by non linear regression by Graphpad Prism software.

Row | SMILES | IC50 [nM]
1 | FC(F)(F)c1ccc2nc(C3C4Oc5ccc(Oc6ccncn6)cc5C43)[nH]c2c1 (racemic) [Compound 3.2, (±)-exo-2-(5-(pyrimidin-4-yloxy)-1a,6b-dihydro-1H-cyclopropa[b]benzofuran-1-yl)-6-(trifluoromethyl)-1H-benzo[d]imidazole] | 569
2 | O=C1CCc2c(Oc3ccc4c(c3)C3C(O4)C3c3nc(C(F)(F)F)c[nH]3)ccnc2N1 (racemic) [Compound 2.33, (±)-exo-5-((1-(4-(trifluoromethyl)-1H-imidazol-2-yl)-1a,6b-dihydro-1H-cyclopropa[b]benzofuran-5-yl)oxy)-3,4-dihydro-1,8-naphthyridin-2(1H)-one] | 6
3 | FC(F)(F)c1ccc2nc(C3C4Oc5ccc(Oc6ncnc7[nH]cnc67)cc5C43)[nH]c2c1 (racemic) [Compound 3.5, (±)-exo-6-((1-(6-(trifluoromethyl)-1H-benzo[d]imidazol-2-yl)-1a,6b-dihydro-1H-cyclopropa[b]benzofuran-5-yl)oxy)-9H-purine] | 56
4 | O=C1CCc2c(Oc3ccc4c(c3)[C@@H]3[C@H](O4)[C@H]3c3nc4cc(Cl)c(C(F)(F)F)cc4[nH]3)ccnc2N1 [Compound 2.5a] | 126
5 | Cc1cc2nc(C3C4Oc5cc(Cl)c(Oc6ccnc7c6CCC(=O)N7)cc5C43)[nH]c2cc1F (racemic) [Compound 2.37, (±)-exo-5-((4-chloro-1-(6-fluoro-5-methyl-1H-benzo[d]imidazol-2-yl)-1a,6b-dihydro-1H-cyclopropa[b]benzofuran-5-yl)oxy)-3,4-dihydro-1,8-naphthyridin-2(1H)-one] | 173
6 | O=C1CCc2c(Oc3ccc4c(c3)[C@H]3[C@@H](O4)[C@@H]3c3nc4cc(Cl)c(Cl)cc4[nH]3)ccnc2N1 [Compound 2.3b] | 32
7 | Cc1cc(Oc2ccnc3c2CCC(=O)N3)cc2c1OC1C(c3nc4ccc(C(F)(F)F)cc4[nH]3)C21 (racemic) [Compound 2.35, (±)-exo-5-((3-methyl-1-(6-(trifluoromethyl)-1H-benzo[d]imidazol-2-yl)-1a,6b-dihydro-1H-cyclopropa[b]benzofuran-5-yl)oxy)-3,4-dihydro-1,8-naphthyridin-2(1H)-one] | 61
8 | O=C1CCc2c(Oc3ccc4c(c3)[C@H]3[C@@H](O4)[C@@H]3c3nc4cc(Cl)c(C(F)(F)F)cc4[nH]3)ccnc2N1 [Compound 2.5b] | 11
9 | O=C1CCc2c(Oc3ccc4c(c3)[C@@H]3[C@H](O4)[C@H]3c3nc4cc(Cl)c(Cl)cc4[nH]3)ccnc2N1 [Compound 2.3a] | 11
10 | Cc1cc2[nH]c([C@H]3[C@@H]4Oc5ccc(Oc6ccnc7c6CCC(=O)N7)cc5[C@@H]43)nc2cc1F [Compound 2.4b] | 21
11 | CNC(=O)c1cc(Oc2ccc3c(c2)C2C(O3)C2c2nc3ccc(C(F)(F)F)cc3[nH]2)ccn1 (racemic) [Compound 3.1, (±)-exo-N-methyl-4-((1-(6-(trifluoromethyl)-1H-benzo[d]imidazol-2-yl)-1a,6b-dihydro-1H-cyclopropa[b]benzofuran-5-yl)oxy)picolinamide] | 56
12 | Cc1cc2[nH]c([C@@H]3[C@H]4Oc5ccc(Oc6ccnc7c6CCC(=O)N7)cc5[C@H]43)nc2cc1F [Compound 2.4a] | 3.4

Target: C-Raf (Y340D/Y341D) (Homo sapiens (Human), UniProt P04049, Y340D/Y341D)
Experiment: Raf IC50 assay, time-resolved fluorescence energy transfer (TR-FRET), C-Raf
Assay type: biochemical
Conditions: 0.5 nM C-Raf, 0.1 mM ATP, GST-tagged MEK1 substrate, 60 min preincubation
Method: The assay was carried out in reactions (10 μL) containing 0.0625 nM B-Raf or 0.5 nM C-Raf, 25 mM Tris pH7.4, 10 mM MgCl2, 0.5 mM EGTA, 0.5 mM […], 5 mM beta-glycerophosphate, 0.01% Triton X-100, 2.5 mM DTT, 0.1% BSA, 0.1 mM ATP, 13.7 nM GST-tagged MEK1 (Full-length protein with K97R mutation, recombinant protein purified from bacterial expression system) and 0-5 μM compounds disclosed herein (final concentration of 1% DMSO). The enzyme was incubated with the compounds at room temperature for 60 minutes and the reactions were initiated by the addition of ATP and GST-MEK1. After incubating at room temperature for 60 minutes, an equal volume of stop buffer containing 25 mM Tris pH7.4, 400 mM KF, 50 mM EDTA, 0.01% BSA, 0.01% Triton X-100, 1 test of Eu3+ Cryptate-conjugated rabbit polyclonal antibody anti-Phospho MEK1/2 (Ser217/221) and 1 test of d2-conjugated mouse monoclonal antibody anti-glutathione S-transferase was added to stop the reactions. Plates were sealed and incubated at room temperature for 2 hours, and then the TR-FRET signals were read on BMG PHERAstar FS instrument. The IC50 for each compound was calculated by non linear regression by Graphpad Prism software.

Row | SMILES | IC50 [nM]
13 | Cc1cc2[nH]c([C@H]3[C@@H]4Oc5ccc(Oc6ccnc7c6CCC(=O)N7)cc5[C@@H]43)nc2cc1F [Compound 2.4b] | 2.5
